# The entries are a selection whose mix differs from that of the whole data set. Inconclusive results are not listed. Active and inactive are the calls of the source. The call rests on the fitted dose curve; in most records, active means well fitted curve in the direction sought with a large enough effect; inconclusive means small, poorly fitted or top-dose-only effect, or effect the other way, or another doubt; inactive means no such curve, though single readings can be large or run the other way.
# Experiment: Confirmation Concentration-Response Assay for Agonists of the Thyroid Stimulating Hormone Receptor: Activators of Intracellular cAMP Concentrations in Parental HEK 293
# Conditions: parental HEK293 CNG biosensor, cAMP membrane potential fluorescence; at 32.9 µM (top of the series)
# Text: NIH Chemical Genomics Center [NCGC] NIH Molecular Libraries Screening Centers Network [MLSCN] MLSCN Grant: 1 X01 MH080680-01 PI Name: Dr. Marvin Gershengorn NCGC Assay Overview: This cell based assay utilized a cyclic nucleotide gated ion channel (CNG) as a biosensor for cAMP induction. HEK 293 cells stably expressing the modified CNG were purchased from BD biosciences (http://www.atto.com/products/actone/features_benefits.shtml) . Stimulation of cAMP production causes the CNG to open and subsequent membrane depolarization to occur. A fluorescent membrane potential dye (BD biosciences) was utilized to detect cAMP stimulation in cells. The cells were maintained in DMEM medium (Invitrogen) containing 10 % FBS (Hyclone), 100 units/ml Penicillin, 100 ug/ml Streptomycin (Invitrogen), and 250 ug/ml Geneticin (Invitrogen) and 1 ug/ml Puromycin (Invitrogen) at 37C in 5% CO2. […]
# NCGC Assay Protocol Summary: High Throughput Screening. […] 23 nl/well compound or control was then added to the assay plates, which were incubated for additional 30 min before reading a Envision fluorescence plate reader (Perkin Elmer) in bottom-read mode for fluorescence intensity (emission at 590 nm). Keywords: cAMP, CNG Ion Channel, quantitative high throughput screening, qHTS, HTS, probe identification, CNG, cAMP, cyclic nucleotide gated ion channel PubChem
smiles,measurement,value
Cc1nn(-c2ccccc2)c2c1P(=O)(N1CCOCC1)N(C)C(c1ccccc1)=N2 (stereo unspecified),"activity change, negative = inhibition",inactive: -3.63%
